Results published in PubChem BioAssay AID588352 (The Scripps Research Institute Molecular Screening Center, 2011).
Only a part is listed here, and it is no random draw. Some results for these compounds are left out of this collection, so the calls shown say nothing about other tests. The source made the active and inactive calls.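 The calls were made as follows: active = inhibition above a per-campaign cutoff, the mean of all compounds plus 3 SD (cut at about 60% in these data); inactive = the rest.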

Amino acid sequences for entries named in this document (tags omitted).
UniProt Q9Y6Q9, whole entry: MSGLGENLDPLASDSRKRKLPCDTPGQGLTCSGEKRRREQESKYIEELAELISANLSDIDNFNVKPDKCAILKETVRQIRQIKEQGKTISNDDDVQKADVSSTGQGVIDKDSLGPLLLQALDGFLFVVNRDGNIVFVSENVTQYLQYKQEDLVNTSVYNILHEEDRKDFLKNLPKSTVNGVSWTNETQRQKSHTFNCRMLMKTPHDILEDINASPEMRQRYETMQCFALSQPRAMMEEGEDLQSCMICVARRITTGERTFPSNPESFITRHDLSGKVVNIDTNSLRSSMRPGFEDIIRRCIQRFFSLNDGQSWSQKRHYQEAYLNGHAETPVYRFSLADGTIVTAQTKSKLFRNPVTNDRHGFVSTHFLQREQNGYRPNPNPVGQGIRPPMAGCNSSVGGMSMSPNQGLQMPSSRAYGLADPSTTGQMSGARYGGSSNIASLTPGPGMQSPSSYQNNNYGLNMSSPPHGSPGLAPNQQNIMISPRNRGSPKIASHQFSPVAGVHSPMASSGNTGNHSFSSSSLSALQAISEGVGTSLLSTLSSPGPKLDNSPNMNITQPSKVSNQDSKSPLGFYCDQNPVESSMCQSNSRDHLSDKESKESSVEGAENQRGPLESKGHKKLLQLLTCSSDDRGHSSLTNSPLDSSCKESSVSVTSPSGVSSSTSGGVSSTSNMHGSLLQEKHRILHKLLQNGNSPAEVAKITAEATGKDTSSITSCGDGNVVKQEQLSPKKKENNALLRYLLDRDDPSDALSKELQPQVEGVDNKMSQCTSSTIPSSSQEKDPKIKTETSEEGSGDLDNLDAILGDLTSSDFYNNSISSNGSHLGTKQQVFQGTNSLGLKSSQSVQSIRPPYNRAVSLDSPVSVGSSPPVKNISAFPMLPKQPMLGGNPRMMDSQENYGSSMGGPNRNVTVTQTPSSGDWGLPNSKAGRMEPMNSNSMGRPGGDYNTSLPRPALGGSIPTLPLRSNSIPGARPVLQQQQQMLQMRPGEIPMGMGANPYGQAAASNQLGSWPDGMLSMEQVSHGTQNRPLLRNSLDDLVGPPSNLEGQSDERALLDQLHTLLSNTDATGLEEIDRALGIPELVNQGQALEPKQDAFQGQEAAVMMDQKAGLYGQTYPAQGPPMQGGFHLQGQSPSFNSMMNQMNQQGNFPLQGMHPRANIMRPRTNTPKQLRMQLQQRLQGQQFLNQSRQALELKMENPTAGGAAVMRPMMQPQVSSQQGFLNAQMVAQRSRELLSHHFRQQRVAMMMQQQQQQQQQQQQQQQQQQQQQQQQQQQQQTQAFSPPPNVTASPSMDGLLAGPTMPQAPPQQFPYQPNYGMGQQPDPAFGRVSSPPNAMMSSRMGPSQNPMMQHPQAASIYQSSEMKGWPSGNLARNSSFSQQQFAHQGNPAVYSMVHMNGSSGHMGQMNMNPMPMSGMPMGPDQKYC

Molecular target: Nuclear receptor coactivator 3 (Homo sapiens) (UniProt Q9Y6Q9)
Assay: NCOA3 GAL4-fusion reporter inhibition – cell-based, luminescence, primary screen (AID 588352);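 also: 0% = DMSO-treated cells and 100% = gossypol-treated cells at 36 µM; higher means less SRC3-driven luciferase light from the GAL4 reporter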
Details: HEK293 GAL4-SRC3 luciferase reporter, at 3.6 µM, hits give high values

Row | SMILES | inhibition
1 | CCN1CCCC(OC(=O)C2(O)c3ccccc3C=Cc3ccccc32)C1 (stereo unspecified) | inactive: 11.2%
2 | Cc1cc(C(=O)NCC2(N3CCCCC3)CCCCC2)ccc1[N+](=O)[O-] | inactive: -13.7%
3 | O=C(NCC1(N2CCCCC2)CCCCC1)c1cccc(Br)c1 | inactive: -3.42%
4 | COc1ccc(C(=O)NCC2(N(C)C)CCCCC2)cc1 | inactive: -4.47%
5 | C=CCN1CCN(CCOC(=O)C(O)(c2ccccc2)c2ccccc2)CC1 | inactive: 1.03%
6 | O=C(NCC1(N2CCCCC2)CCCCC1)c1cc(F)c(F)cc1Cl | inactive: 4.47%
7 | Cc1ccccc1C(=O)NCC1(N2CCCCC2)CCCCC1 | inactive: -1.64%
8 | CN(C)c1ccc(C(=O)NCC2(N(C)C)CCCCC2)cc1 | inactive: -50.5%
9 | CN(C)C1CCCC1OC(=O)C(O)(c1ccccc1)c1ccccc1 (stereo unspecified) | inactive: 0.86%
10 | Cc1ccc(C(=O)NCC2(N3CCCCC3)CCCCC2)cc1 | inactive: -14%
11 | CC(C)N1C(=O)CC2(CCN(CCOC(=O)C(O)(c3ccccc3)c3ccccc3)CC2)C1=O | inactive: 22.6%
12 | CCN(CC)CC(C)C(C)OC(=O)C(O)(c1ccccc1)c1ccccc1 (stereo unspecified) | inactive: 5.46%
13 | COc1cc(SC)ccc1C(=O)NCC1(N(C)C)CCCCC1 | inactive: -5.32%
14 | CN1[C@@H]2CC[C@H]1CC(OC(=O)C(O)(c1ccccc1)c1ccccc1)C2 (stereo partly specified) | inactive: -2.72%
15 | O=C(NCC1(N2CCCCC2)CCCCC1)c1cc([N+](=O)[O-])ccc1Cl | inactive: 26.5%
16 | CN(C)c1cccc(C(=O)NCC2(N(C)C)CCCCC2)c1 | inactive: 19.2%
17 | CC(C)Oc1ccc(C(=O)NCC2(N(C)C)CCCCC2)cc1 | inactive: -19.3%
18 | O=C(OCCN1CCCC1)C(O)(c1ccccc1)c1ccccc1 | inactive: -21.4%
19 | COc1ccc(Br)c(C(=O)NCC2(N3CCCCC3)CCCCC2)c1 | inactive: 4.38%
20 | C=C(C)C#CC(O)(C(=O)OC1CCN(C)CC1)c1ccccc1 (stereo unspecified) | inactive: -0.86%
21 | O=C(OC1CN2CCC1CC2)C(CO)(c1ccccc1)c1ccccc1 (stereo unspecified) | inactive: 1.69%
22 | O=C(NCC1(N2CCCCC2)CCCCC1)c1cccc(Cl)c1 | inactive: -7.1%
23 | COc1cccc(C(=O)NCC2(N3CCCCC3)CCCCC2)c1 | inactive: -7.72%
24 | COc1ccc(Cl)cc1C(=O)NCC1(N(C)C)CCCCC1 | inactive: -11.3%
25 | COc1cc(C(=O)NCC2(N(C)C)CCCCC2)c([N+](=O)[O-])cc1OC | inactive: -4.55%
26 | CN(C)C1(CNC(=O)c2ccc(Br)cc2)CCCCC1 | inactive: -1.61%
